{"source": "paper PMC12113730", "about": "“Reducing Functional Domain of Histatin 5 Improves Antifungal Activity and Prevents Proteolytic Degradation” (Microorganisms, 2025)", "origin": "cited, not measured here", "conditions": "cited from earlier work", "data": [{"substance": "Histatin 5 [Hst5]", "values": [{"measurement": "Time reported for complete degradation", "setting": "in contact with diluted WSS", "value": 60, "unit": "min"}, {"measurement": "Time enough for complete degradation", "setting": "ref 45 (Thomadaki et al.)", "value": 1.5, "unit": "h"}]}]}
